Results from patent US20190113503A1 (priority 2016, published 2019).

Legend:
KCB cells = conditions: versus control, cell line presented herein
[1] = system: carp (Cyprinus carpio) erythrocytes; experiment: in vivo MN frequency in carp erythrocytes (Gustavino 2001); conditions: literature, individuals injected with the aneugen
[2] = system: erythrocytes of the European minnow (Phoxinus phoxinus) and of the sailfin molly (Poecilia latipinna); conditions: fish injected with 10 mg colchicine/kg body weight; background 6.25; cited from earlier work
human skin fibroblasts = experiment: MN frequency in human skin fibroblasts (Lofti & Santelli); assay type: cell-based; conditions: maximum over literature cell lines exposed to colchicine

COc1cc2c(c(OC)c1OC)-c1ccc(OC)c(=O)cc1[C@@H](NC(C)=O)CC2 [colchicine]
fold increase in MN frequency (KCB cells): 3 fold | fold increase in MN frequency [1]: around 5 fold | MN frequency [2]: 20.76% | fold increase in MN frequency (human skin fibroblasts): ≤ 20 fold
